Assay results taken from PMC7150891, “Mertansine Inhibits mRNA Expression and Enzyme Activities of Cytochrome P450s and Uridine 5′-Diphospho-Glucuronosyltransferases in Human Hepatocytes and Liver Microsomes” (Pharmaceutics, 2020).

Legend:
UGT1A1 mRNA = UGT1A1 mRNA level in human hepatocytes after 48 h treatment (RT-PCR); conditions: Omeprazole 50 μM, Lot 321
UGT1A4 mRNA = UGT1A4 mRNA level in human hepatocytes after 48 h treatment (RT-PCR); conditions: Omeprazole 50 μM

COc1ccc2[nH]c([S+]([O-])Cc3ncc(C)c(OC)c3C)nc2c1 (stereo not shown) [Omeprazole, omeprazole]
UGT1A1 mRNA (Fold Change) (UGT1A1 mRNA): 4.05 ± 0.53 Fold Change | UGT1A4 mRNA (Fold Change) (UGT1A4 mRNA; Lot 319): 3.31 ± 0.35 Fold Change | UGT1A4 mRNA (Fold Change) (UGT1A4 mRNA; Lot 321): 4.13 ± 0.66 Fold Change | UGT1A4 mRNA (Fold Change) (UGT1A4 mRNA; Lot 361): 3.7 ± 0.62 Fold Change
